# Laboratory results taken from PubChem BioAssay AID1471 (National Center for Advancing Translational Sciences (NCATS), 2008).
# Several values for one entry are separate records, joined by “and”; a condition that tells them apart may be missing. Identical values can stand only once. This is a selection; strong and weak results do not stand in their true shares. Activity calls are given as the source filed them. Calls come from the whole dose curve; as a rule, active = well fitted activation curve with a large enough effect; inconclusive = small, poorly fitted or top-dose-only effect; inactive = no such curve, though single readings can be large or run the other way.
# Assay: qHTS Multiplex Assay to Identify Dual Action Probes in a Cell Model of Huntington: Cytoprotection (ATP);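 note: toxic huntingtin expression switched on by the ecdysone agonist tebufenozide; % of control where 0% means no effect; nearly all actives have a fitted effect of over 45% in size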
# Details: PC12 HTT-Q103 induced, ATP luminescence, 40 h
# Description: NIH Chemical Genomics Center [NCGC]
# NIH Molecular Libraries Probe Production centers Network [MLPCN]
# Assay Submitter (PI): Wei Zheng
# Huntington's disease is a neurodegenerative disorder caused by a trinucleotide repeat expansion in Exon 1 of the Huntingtin gene. The CAG trinucleotide encodes glutamine and polyglutamine expansions cause cell death in selective areas of the brain. Huntington polyglutamine repeats have the tendency to form aggregates which are observable in later stages of the disease. The exact nature of the aggregates, whether toxic, protective, or insignificant, is unclear.
# A stable PC12 cell line containing a gene fusion of Exon 1 of the Huntingtin gene linked to GFP under the control of the inducible ecdysone promoter were used as the cell-based model of Huntington Disease for high throughput screening. Exon 1 of the Huntingtin gene contained an expansion of 103 polyglutamines (Q103) which, when expressed, caused cell death and distinct, bright GFP aggregates. The amount of cell death and the size and intensity of GFP aggregates increased over time and induction level. The cell death were quantified with a measurement of ATP content in the cells. A maximal 40-50% of cell death was observed when the Huntington gene was induced in this cell line.
# We optimized this assay in a homogeneous 1536 well format. A quantitative high throughput screen (qHTS) was conducted on the PC12 cells which were induced to express the toxic fusion construct. Small molecules which prevented cell death were identified by using a luminescent ATP quantification method (Perkin Elmer's ATPlite).
# PC12 cells stably containing a construct with an ecdysone inducible promoter expressing GFP fused to the exon 1 of HTTQ103 (Huntington protein which containing a 103 ployglutamine expansion) were used.
# NCGC Assay Protocol Summary:
# Sequence, Parameter, Description
# 1, Reagent, 5 uL 1500 cells/well 1536 TC treated White clear bottom plate
# 2, Compound, 23 nL Tebufenozide inducer (100 nM final) to all columns
# 3, Compound, 23 nL 40 uM to 0.5 nM Libraries
# 5, Reagent, 5 ul ATPLite cell death assay reagent
# 6, Detector, 4 sec integration with a Viewlux Luminescent
# Media consisted of phenol red free DMEM + 5% equine serum (Hyclone # SH30072.03 ), 5% supplemented Bovine Calf Serum (Hyclone # SH30074.03 ), 1x pen/strep, no G418
# Control columns: 1 = DMSO, 2= 2 uM teb dilns (1:1), 4 = 100 nM Teb inducer. Sample columns received 100 nM Teb.
# [1] = at 10 µM (top of the series) unless noted
compound,measurement,setting,value
O=[N+]([O-])c1ccc(Nc2ccc(Oc3ccc([N+](=O)[O-])cc3[N+](=O)[O-])cc2)c([N+](=O)[O-])c1,cytoprotection (ATP increase),[1],inactive: -16%
CCOC(=O)Nc1cccc([As](=O)(O)O)c1,cytoprotection (ATP increase),[1],inactive: -6.89%
Cc1cc(SC(NC(=O)c2ccccc2)C(Cl)(Cl)Cl)nc(C(C)C)n1 (configuration not stated),cytoprotection (ATP increase),[1],inactive: 10.2%
CCOC(=O)Nc1ccc([As](=O)(O)O)c(O)c1,cytoprotection (ATP increase),[1],inactive: -13.1%
O=C(O)CNc1ccc([As](=O)(O)O)cc1,cytoprotection (ATP increase),[1],inactive: 29%
O=[N+]([O-])c1cccc(NC2=NCC(CBr)S2)c1 (configuration not stated),cytoprotection (ATP increase),[1],inactive: -8.21%
O=[N+]([O-])c1ncn(CCn2ncnc2[N+](=O)[O-])n1,cytoprotection (ATP increase),[1],inactive: -1.33% [at 56.4 µM]
CC(C)(C)C(=O)NC(Sc1ccncn1)C(Cl)(Cl)Cl (configuration not stated),cytoprotection (ATP increase),[1],inactive: -3.29%
O=C(Nc1cc([As](=O)(O)O)ccc1O)c1ccccc1,cytoprotection (ATP increase),[1],inactive: 23.9%
CN(C(=O)Cc1ccccc1)[C@@H]1CC[C@@]2(CCCO2)C[C@H]1N1CCCC1,cytoprotection (ATP increase),[1],inactive: -13.2% [at 1.9 µM]
CC(=O)C1=CCCC2CCC1N2 (configuration not stated),cytoprotection (ATP increase),[1],inactive: -1.19% [at 56.4 µM] and inactive: -7.5% [at 56.4 µM]
CC1CCN(C(=O)Oc2c(Cl)cc(Cl)c3cccnc23)CC1,cytoprotection (ATP increase),[1],inactive: -23.5% [at 56.4 µM]
O=C(CO)Nc1ccc([As](=O)(O)O)cc1,cytoprotection (ATP increase),[1],inactive: 8.07%
CC(C)=N/N=C(\N)N[N+](=O)[O-],cytoprotection (ATP increase),[1],inactive: -0.022%
CCN(/C(=N/P(=O)(N1CCOCC1)N1CCOCC1)N1CCOCC1)c1ccc(OC)cc1,cytoprotection (ATP increase),[1],inactive: -29.6% [at 56.4 µM]
C[N+]1=C2C=CC=CC=C2SC12C([N+](=O)[O-])=CC([N+](=O)[O-])=C[C-]2[N+](=O)[O-] (configuration not stated),cytoprotection (ATP increase),[1],inactive: -48.7%
Nc1ccc([As](=O)(O)c2ccc(N)cc2)cc1,cytoprotection (ATP increase),[1],inactive: 8.84%
O=[N+]([O-])c1cc([N+](=O)[O-])c(CCNc2ccccc2)c([N+](=O)[O-])c1,cytoprotection (ATP increase),[1],inactive: -26.7% [at 56.4 µM]
CCc1nc2c(n1)c1c(non1O)c1c2no[n+]1[O-],cytoprotection (ATP increase),[1],inactive: -28.6% [at 56.4 µM]
Cc1ccc(NP(=O)(Oc2ccccc2)Oc2ccccc2)nc1,cytoprotection (ATP increase),[1],inactive: -2.73% [at 56.4 µM]
CC(=O)N1C2C3N(C(C)=O)C1C1N(C(C)=O)C(C(N1C(C)=O)N3C(C)=O)N2C(C)=O,cytoprotection (ATP increase),[1],inactive: 6.6% [at 56.4 µM]
O=[N+]([O-])c1cccc2n[nH]nc12,cytoprotection (ATP increase),[1],inactive: -7.42% [at 56.4 µM]
COc1ccc(C2=NCC(CBr)S2)cc1 (configuration not stated),cytoprotection (ATP increase),[1],inactive: -21.3% [at 56.4 µM]
NCC[C@@H](N)CSP(=O)(O)O,cytoprotection (ATP increase),[1],inactive: -5.35%
Cc1c2non([O-])c-2c(C)[n+](=O)[n+]1[O-],cytoprotection (ATP increase),[1],inactive: -114% [at 56.4 µM]
O=C(NC(Sc1ccncn1)C(Cl)(Cl)Cl)c1ccccc1 (configuration not stated),cytoprotection (ATP increase),[1],inactive: -10.5%
Oc1ccccc1CNc1ccccn1,cytoprotection (ATP increase),[1],inactive: -9.34% [at 56.4 µM]
CC(C)CC(=O)NC(Sc1ccc(Cl)cc1)C(Cl)(Cl)Cl (configuration not stated),cytoprotection (ATP increase),[1],inactive: -4.62% [at 56.4 µM]
Nc1cc(N)c2nonc2c1[N+](=O)[O-],cytoprotection (ATP increase),[1],inactive: 6.79%
Clc1ccc(Cl)c(NC2=NCC(CBr)S2)c1 (configuration not stated),cytoprotection (ATP increase),[1],inactive: -16.1% [at 56.4 µM]
CN1CCCC(OC(=O)C(c2ccccc2)c2ccccc2)C1 (configuration not stated),cytoprotection (ATP increase),[1],inactive: 13.6% [at 1.9 µM]
Cc1ccc(OP(=O)(Nc2nccs2)Oc2ccc(C)cc2)cc1,cytoprotection (ATP increase),[1],inactive: -1.27%
O=[N+]([O-])c1ccc(C[As](=O)(O)O)cc1,cytoprotection (ATP increase),[1],inactive: 26.1%
COc1ccccc1OP(=O)(Nc1ccc(C)cn1)Oc1ccccc1OC,cytoprotection (ATP increase),[1],inactive: 5.14%
Cc1ccc(N/C(=N/P(=O)(N2CCOCC2)N2CCOCC2)N2CCOCC2)cc1,cytoprotection (ATP increase),[1],inactive: 5.3%
NC(=O)c1cc([N+](=O)[O-])cc([N+](=O)[O-])c1N,cytoprotection (ATP increase),[1],inactive: -37.1% [at 56.4 µM]
Nc1cccc2ccc([As](=O)(O)O)cc12,cytoprotection (ATP increase),[1],inactive: 1.95%
C(Cc1nn[nH]n1)c1nn[nH]n1,cytoprotection (ATP increase),[1],inactive: -14.1%
CCN(N=Nc1nonc1N)c1nonc1N,cytoprotection (ATP increase),[1],inactive: -9.38% [at 1.9 µM]
[N-]=[N+]=NCC(O)CN=[N+]=[N-] (configuration not stated),cytoprotection (ATP increase),[1],inactive: -3.82%
Cc1ccc(NP(=O)(Oc2ccccc2F)Oc2ccccc2F)nc1,cytoprotection (ATP increase),[1],inactive: -3.23%
CCOP(=O)(Nc1ccccc1)OCC,cytoprotection (ATP increase),at 10 µM (top of the series),inactive: 12.2%
same,cytoprotection (ATP increase),at 56.4 µM (top of the series),inactive: 19.7%
Cc1cc(SC(NC(=O)c2ccc(F)cc2)C(Cl)(Cl)Cl)ncn1 (configuration not stated),cytoprotection (ATP increase),[1],inactive: 1.16%
O=P(Nc1nc2ccc(Cl)cc2s1)(c1ccccc1)c1ccccc1,cytoprotection (ATP increase),[1],inactive: -1.87%
O=C(O)c1ccccc1[As](=O)(O)O,cytoprotection (ATP increase),[1],inactive: -0.431%
CC(=O)Nc1ccc([As](=O)(O)O)cc1,cytoprotection (ATP increase),[1],inactive: 3.23%
CN(C)C(=O)Oc1noc2ccccc12,cytoprotection (ATP increase),[1],inactive: 23.5%
O=c1c2cc([N+](=O)[O-])ccc2[nH]c2c([N+](=O)[O-])cc([N+](=O)[O-])cc12,cytoprotection (ATP increase),[1],inactive: -25.4%
Cc1ccccc1OP(=O)(Nc1ccccn1)Oc1ccccc1C,cytoprotection (ATP increase),[1],inactive: 8.97%
CCC(=O)N1C2C3N(C(=O)CC)C1C1N(C(=O)CC)C(C(N1C(=O)CC)N3C(=O)CC)N2C(=O)CC,cytoprotection (ATP increase),[1],inactive: 2.37% [at 56.4 µM]
O=C(OC1CN2CCC1CC2)c1ccccc1 (configuration not stated),cytoprotection (ATP increase),[1],inactive: 12.1% [at 56.4 µM]
Cc1ccc(OP(=O)(Nc2ccccn2)Oc2ccc(C)cc2)cc1,cytoprotection (ATP increase),[1],inactive: 32.4%
COC(=O)c1cc2c(s1)N=C(c1ccccc1)N(C)P2(=O)N1CCOCC1 (configuration not stated),cytoprotection (ATP increase),[1],inactive: -22% [at 56.4 µM]
Cc1ccc(NP(=O)(Oc2cccc(C)c2)Oc2cccc(C)c2)nc1,cytoprotection (ATP increase),[1],inactive: -7.84%
CCOC(=O)NC(Sc1ccccc1)C(Cl)(Cl)Cl (configuration not stated),cytoprotection (ATP increase),[1],inactive: -37.5% [at 56.4 µM]
c1ccc(-c2nn[nH]n2)c(-c2nn[nH]n2)c1,cytoprotection (ATP increase),[1],inactive: -15.6%
O=C(NC1CCS(=O)(=O)C1)NP(=S)(Oc1ccccc1)Oc1ccccc1 (configuration not stated),cytoprotection (ATP increase),[1],inactive: -11.3% [at 56.4 µM]
CCNC(=S)/N=C(\N)N[N+](=O)[O-],cytoprotection (ATP increase),[1],inactive: -22% [at 1.9 µM]
CC(=O)Nc1ccc(Oc2c([N+](=O)[O-])cc([N+](=O)[O-])cc2[N+](=O)[O-])cc1,cytoprotection (ATP increase),[1],inactive: -29.2% [at 56.4 µM]
CC(=O)Nc1ccc([As](=O)(O)O)c(O)c1,cytoprotection (ATP increase),[1],inactive: 2.59%
C[C@@H]1C=CCP(=O)(Oc2ccccc2)O1 (some centres not stated),cytoprotection (ATP increase),[1],inactive: 10.7%
C[C@H]1OP(=O)(Oc2ccccc2)C[C@@H]2O[C@@H]21 (some centres not stated),cytoprotection (ATP increase),[1],inactive: -9.07%
CC(C)(C)C(=O)NC(Sc1ccccc1)C(Cl)(Cl)Cl (configuration not stated),cytoprotection (ATP increase),[1],inactive: -32.1% [at 56.4 µM]
CCOc1ccc(C2=NCC(CBr)S2)cc1 (configuration not stated),cytoprotection (ATP increase),[1],inactive: 17.7% [at 56.4 µM]
O=P1(Nc2nc3ccc(Cl)cc3s2)COc2ccccc2O1 (configuration not stated),cytoprotection (ATP increase),[1],inactive: -11.5% [at 56.4 µM]
C[C@@H](O)COc1ccc([As](=O)(O)O)cc1N,cytoprotection (ATP increase),[1],inactive: -0.0897%
CN1CCC[C@H](OC(=O)C(c2ccccc2)c2ccccc2)C1,cytoprotection (ATP increase),[1],inactive: -4.83%
c1nnnn1CCn1cnnn1,cytoprotection (ATP increase),[1],inactive: 0.594% [at 56.4 µM]
O=P(Nc1nccs1)(c1ccccc1)c1ccccc1,cytoprotection (ATP increase),[1],inactive: -10.7% [at 56.4 µM]
CC(C)C(=O)NC(Sc1ccccc1)C(Cl)(Cl)Cl (configuration not stated),cytoprotection (ATP increase),[1],inactive: 11.7%
O=C(OC1CN2CCC1CC2)c1cccc(Cl)c1 (configuration not stated),cytoprotection (ATP increase),[1],inactive: 3.29% [at 56.4 µM]
Nc1ccc([As](=O)(O)c2ccc([N+](=O)[O-])cc2)cc1,cytoprotection (ATP increase),[1],inactive: 9.02%
C(Cc1nn[nH]n1)Cc1nn[nH]n1,cytoprotection (ATP increase),[1],inactive: -3.98%
O=[As](O)(c1ccccc1)c1ccc(O)cc1,cytoprotection (ATP increase),[1],inactive: 6.08%
O=[N+]([O-])c1ncn(CCn2cnc([N+](=O)[O-])n2)n1,cytoprotection (ATP increase),[1],inactive: 7.6%
CN(C(=O)Cc1ccccc1)[C@H]1CC[C@@]2(CCCO2)C[C@@H]1N1CCCC1,cytoprotection (ATP increase),[1],inactive: 8.79% [at 56.4 µM]
[N-]=[N+]=Nc1ccc([As](=O)(O)O)cc1,cytoprotection (ATP increase),[1],inactive: 3.04%
Cc1cc([N+](=O)[O-])cc([N+](=O)[O-])c1O,cytoprotection (ATP increase),[1],inactive: -227% [at 56.4 µM]
C[C@H]1OP(=O)(Oc2ccccc2)[C@H](O)[C@H](O)[C@H]1N=[N+]=[N-] (some centres not stated),cytoprotection (ATP increase),[1],inactive: 4.41%
O=P(Nc1nc2ccccc2s1)(c1ccccc1)c1ccccc1,cytoprotection (ATP increase),[1],inactive: -3.9%
O=P(Nc1ccccn1)(c1ccc(Br)cc1)c1ccc(Br)cc1,cytoprotection (ATP increase),[1],inactive: -10.7% [at 56.4 µM]
